# Source: PubChem
# Rows were chosen to be rich in hits. Some 2.1% of all compounds tested hit in one or more screens of this group.
# PTAP TSG101 blk – blocks PTAP/TSG101 interaction to inhibit HIV-1 budding. 340,000 tested, under 10 active. AID 493005. Q99816. Fluorescence polarization, FITC-PTAP peptide / Tsg101 binding. Potency, µM (titrated, usually from 115 µM), inactives show at the highest dose activity change, negative = inhibition, most hits filed as inhibitors; active = well fitted inhibition curve with a large enough effect in the main read-out, with a control signal flat, not every such curve was filed as active; inconclusive = small, poorly fitted or top-dose-only effect, or effect the other way, or a change in a side signal; inactive = no such curve, though single readings can be large or run the other way; note: potency is the fitted concentration of half-maximal effect; % of control where 0% means no effect
#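 Steps: Tsg101 binding domain dispensed (10 uM final), compounds pinned in DMSO, FITC-labeled PTAP-motif peptide added (50 nM final); after 20 min binding at room temperature, polarization measured.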
# miR-21 reporter – raises the signal of a miR-21 reporter | HeLa miR-21 FLuc reporter, luciferase, 48 h | 340,000 tested, under 10 active | Potency, µM (titrated, usually from 38.3 µM), inactives show at the highest dose reporter change, positive = more light; active = well fitted rising curve with a large enough effect; inconclusive = small, poorly fitted or top-dose-only effect; inactive = no such curve, though single readings can be large or run the other way;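 further: % of control where 0% means no effect; miR-21 action dims this reporter so a rising signal means less miR-21 action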
#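 Luminescence from a firefly luciferase reporter carrying a miR-21 binding site downstream, stably expressed under a CMV promoter in HeLa cells that make miR-21 endogenously, reports miRNA modulation after 48 h compound exposure up to approximately 40uM final.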
# Nrf2 block – Nrf2 pathway inhibition | A549 ARE-Fluc reporter, luciferase luminescence, 18-24 h | Potency, µM (top dose mostly 46 µM), for the others: top-dose activity change, negative = inhibition, hits mostly inhibitors | 360,000 compounds, 2.1% hits; note: potency is the fitted concentration of half-maximal effect; % is set by controls: 0 for no effect and ±100 for the full control effect; nearly all actives have a fitted effect of over 60% in size
#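 Nrf2 activity is the BugLite luminescence, read 15 min after reagent at room temperature, following CellTiter-Fluor cytotoxicity readout (30 min, 37C). Compound titrations were applied for 18-24 h to 5000 A549 ARE_Fluc cells/well in 5% FBS OPTI-MEM.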
# A549 tox – A549 cytotoxicity, counter-screen for Nrf2 inhibitors. A549 ARE-Fluc cells, CellTiter-Fluor viability, 18-24 h. Potency, µM (series often up to 46 µM), for inactives: top-dose activity change, negative = cytotoxicity, hits mostly inhibitors. 390,000 compounds, 0.16% hits; note: potency is the fitted concentration of half-maximal effect; % is set by controls: 0 for no effect and ±100 for the full control effect
#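 A549 ARE_Fluc cells in 5% FBS OPTI-MEM were exposed to compounds in concentration-response for 18-24 h at 37 deg C. Viability was read by CellTiter-Fluor fluorescence (Ex 405/Em 525) after 30 min, before the luciferase read.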
# GRP78 ERSR act – inducers of ER stress response in human glioma cells. U87-MG GRP78 promoter luciferase reporter, 16 h. AID 602332. Potency, µM, without a hit: at the top dose activation, actives largely listed as activators. 420,000 compounds, 0.02% hits; note: potency is the fitted concentration of half-maximal effect; series mostly up to about 76 µM; % of control where 0% means no effect; nearly all actives have a fitted effect of over 35% in size
#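 ERSR induction read as luciferase luminescence (Bright-Glo, 10 min at room temperature) in stably transfected human U87-MG glioma cells exposed to compounds for 16 h, using GRP78 as sensor.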
# Nrf2 ARE act – activators of Nrf2 (ARE) signaling; AREc32 ARE-luciferase reporter (MCF7-derived line), luminescence, 24 h; Potency, µM (highest dose often 46.1 µM), for inactives: at the top dose activation, hits mostly activators; 410,000 compounds, 0.31% hits; note: potency is the fitted concentration of half-maximal effect; % of control where 0% means no effect; nearly all actives have a fitted effect of over 65% in size
#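 AREc32 cells carrying an ARE-driven firefly luciferase reporter were seeded at 1000 cells/well in OPTI-MEM with 5% FBS, then exposed to compound for 24 hr at 37 deg C. Luminescence was read with Steady-Glo after 30 min at RT.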
# An asterisk follows results filed as active; ? = inconclusive; nt = not tested or not shown; [ ] = another dose, or the depositor's remark. Unless noted, calls come from the whole dose curve; as a rule, active = well fitted curve in the direction sought with a large enough effect; inconclusive = small, poorly fitted or top-dose-only effect, or another doubt; inactive = no such curve, though single readings can be large; an effect the other way counts as inactive or inconclusive.
SMILES,PTAP TSG101 blk,miR-21 reporter,Nrf2 block,A549 tox,GRP78 ERSR act,Nrf2 ARE act
COc1ccc(NC2C[C@H]3CCCC(=O)N4CC[C@@H](C2)[C@@H]34)cc1 (stereo not given in full),nt,nt,nt,nt,50µM*,nt
C=CCN(c1ccccc1OC)S(=O)(=O)c1cccc(C(=O)OCC(=O)c2c(N)n(C)c(=O)n(C)c2=O)c1,-4%,nt,21µM*,1%,-1%,3%
COc1ccccc1C1CN(CC(=O)N2CCC(N3CCOCC3)CC2)Cc2ccccc2O1 (stereo not given),nt,nt,nt,nt,-3%,nt
CCN(CC)CCn1nc(C)nc1-c1ccccc1O,-2%,-6%,-26%,3%,-2%,-2%
CCN(CC)CCn1nc2c3c(cccc3c1=O)-c1ccccc1-2,0%,?,?,13µM*,?,-2%
Cc1onc(-c2ccccc2Cl)c1C(=O)NCc1nc(-c2ccc(C(F)(F)F)cc2)no1,-4%,18%,26µM*,0%,-4%,2%
CCCc1cc(F)c(S(=O)(=O)N2CCN(S(=O)(=O)c3ccc4c(c3)OCCO4)CC2)cc1F,nt,nt,13%,1%,nt,nt
O=C(N/N=C/c1ccc[nH]1)c1ccc(COc2cccc3cccnc23)cc1,1%,?,?,7.3µM*,-2%,0%
O=C(N/N=C/c1ccccc1C(=O)O)c1ccc(COc2cccc3cccnc23)cc1,0%,-10%,1%,5%,3%,0%
Cc1cc(Br)c(OCc2ccc(C(=O)N/N=C/c3ccc[nH]3)cc2)c(Br)c1,-6%,nt,0.52µM*,1.3µM*,10%,0%
COC(=O)c1cc(=O)n(Cc2cccs2)c(=Nc2ccc(F)cc2)s1,1%,4%,-9%,-12%,?,-5%
COC(=O)c1cc(=O)n(-c2ccc(F)cc2)c(=Nc2ccc(F)cc2)s1,-1%,24%,21µM*,?,-12%,-6%
COc1ccc(C2(C(=O)NCC3Cc4cccc(-c5nc(C)cnc5C)c4O3)CCCC2)cc1 (stereo not given),nt,nt,nt,nt,-7%,nt
Cn1c(=O)c2c(SCC(=O)Nc3ccc4c(c3)OCCO4)nc(CC(C)(C)C)nc2n(C)c1=O,-7%,0%,7.3µM*,?,-5%,0%
Cc1oc(-c2ccccc2NC(=O)C2CCCO2)nc1CNC(=O)c1cc(F)c(F)cc1F (stereo not given),nt,nt,nt,nt,-5%,nt
CC(=O)Oc1c(Cl)cc(Cl)cc1/C=C/c1ccc2ccccc2n1,-1%,-20%,16%,9%,?,13µM*
O=S(=O)(NCc1ccc2c(c1)OCO2)c1cccc(F)c1,0%,-7%,5%,-2%,-1%,0%
O=S(=O)(NCc1ccc2c(c1)OCO2)c1ccc2c(c1)oc1ccccc12,0%,-17%,21µM*,-15%,-7%,3%
COC(=O)c1cccc(NC(=O)c2ccc(S(=O)(=O)N(C)c3ccccc3OC)cc2)c1,nt,nt,nt,nt,-6%,0%
Cc1nc2ccc(NC(=O)c3cccc(S(=O)(=O)N(C)c4ccccc4)c3)cc2s1,0%,22%,21µM*,?,-5%,-1%
COc1ccccc1N(C)S(=O)(=O)c1ccc(C(=O)Nc2ccc3nc(C)sc3c2)cc1,5%,28%,18µM*,-12%,-5%,0%[9.22 µM]
Cc1nc2ccc(NC(=O)c3ccccc3)cc2s1,-4%,-65%,?,9%,11%,0%
CN(c1ccccc1)S(=O)(=O)c1cccc(NC(=O)CSc2nncs2)c1,-3%,9%,21µM*,-8%,-3%,3%
CN(c1ccccc1)S(=O)(=O)c1cccc(NC(=O)CSc2nnc(N)s2)c1,1%,11%,?,-2%,-4%,0%
COc1ccccc1N(C)S(=O)(=O)c1ccc(C(=O)Nc2cccc(Br)c2)cc1,0%,nt,16µM*,-9%,-1%,3%

# Single records, as listed above. Order of values: PTAP TSG101 blk	miR-21 reporter	Nrf2 block	A549 tox	GRP78 ERSR act	Nrf2 ARE act
# Results for CCN(CC)CCn1nc(C)nc1-c1ccccc1O : -2%	-6%	-26%	3%	-2%	-2%
# Results for O=C(N/N=C/c1ccc[nH]1)c1ccc(COc2cccc3cccnc23)cc1 : 1%	?	?	7.3µM*	-2%	0%

# Later entries.
SMILES,PTAP TSG101 blk,miR-21 reporter,Nrf2 block,A549 tox,GRP78 ERSR act,Nrf2 ARE act
O=C1CCc2cc(S(=O)(=O)Nc3cccc4ccccc34)ccc2N1,nt,nt,?,9%,nt,nt
O=c1cc(/C=C/c2ccc([N+](=O)[O-])cc2)c2ccccc2[nH]1,nt,nt,nt,nt,-4%,nt
Cn1c(=O)c2c(ncn2CC(=O)Nc2ccccc2)n(C)c1=O,-7%,-4%,-5%,-9%,1%,0%
CN(c1ccccc1)S(=O)(=O)c1cccc(NC(=O)c2ccc3ncsc3c2)c1,-5%,?,16µM*,-21%,-6%,-1%
CN(c1ccccc1)S(=O)(=O)c1cccc(NC(=O)Cn2cnc3c2c(=O)n(C)c(=O)n3C)c1,-3%,16%,10µM*,0%,-4%,0%
COCc1ccc(C(=O)Nc2cccc(S(=O)(=O)N(C)c3ccccc3)c2)cc1,-5%,nt,18µM*,-10%,-5%,4%
COC(=O)c1ccc(CNC(=O)c2ccc(S(=O)(=O)N(C)c3ccccc3OC)cc2)cc1,-5%,nt,23µM*,0%,3%,0%
Cc1cc2nccc(C)c2cc1C,nt,nt,nt,nt,7%,nt
Cc1cc2c(s1)c1cnn(Cc3cc(Cl)ccc3F)c(=O)c1n2C,nt,nt,18%,2%,nt,nt
Cn1c(=O)c2c(ncn2CC(=O)Nc2cc(S(=O)(=O)N3CCCCC3)ccc2Cl)n(C)c1=O,-2%,nt,21µM*,-2%,-6%,2%
CCn1c(CNc2ccc(Cl)cc2)nnc1SCc1ccc(Cl)cc1,-7%,2%,23µM*,?,-2%,0%
CCOc1ccc(N2C(=O)C(CC(=O)Nc3ccccc3)N(Cc3ccccn3)C2=S)cc1 (stereo not given),0%,18%,23µM*,?,-1%,23%
CC(=O)c1c(C)oc2ccc(N(C(=O)c3ccncc3)S(=O)(=O)c3ccc(F)cc3C)cc12,nt,?,?,-8%,-4%,0%
COC(=O)c1c(C)oc2ccc(N(C(=O)c3ccncc3)S(=O)(=O)c3ccccc3)cc12,-2%,20%,nt,?,-4%,3%
COC(=O)c1c(C)oc2ccc(N(C(=O)c3ccncc3)S(=O)(=O)c3ccc4ccccc4c3)cc12,1%,28%,23µM*,-23%,3%,3%
COC(=O)c1c(C)oc2ccc(N(C(=O)c3ccncc3)S(=O)(=O)c3ccc(C)cc3C)cc12,1%,-3%,6.5µM*,?,-1%,3%
COC(=O)c1c(C)oc2ccc(N(C(=O)c3ccncc3)S(=O)(=O)c3ccc(C)cc3)cc12,1%,26%,10µM*,?,-2%,0%
CCCCCCn1c(N2CCN(c3ccccc3)CC2)nc2c1c(=O)[nH]c(=O)n2C,-4%,-2%,21µM*,?,?,2%

# Given with bars between the fields: part of the list above
SMILES | PTAP TSG101 blk | miR-21 reporter | Nrf2 block | A549 tox | GRP78 ERSR act | Nrf2 ARE act
COCc1ccc(C(=O)Nc2cccc(S(=O)(=O)N(C)c3ccccc3)c2)cc1 | -5% | nt | 18µM* | -10% | -5% | 4%
CCCCCCn1c(N2CCN(c3ccccc3)CC2)nc2c1c(=O)[nH]c(=O)n2C | -4% | -2% | 21µM* | ? | ? | 2%
COC(=O)c1c(C)oc2ccc(N(C(=O)c3ccncc3)S(=O)(=O)c3ccc(C)cc3)cc12 | 1% | 26% | 10µM* | ? | -2% | 0%
CCOc1ccc(N2C(=O)C(CC(=O)Nc3ccccc3)N(Cc3ccccn3)C2=S)cc1 (stereo not given) | 0% | 18% | 23µM* | ? | -1% | 23%
